Measurements taken from BindingDB's records for patent US10941160 (Celgene Quanticel Research, 2021).

Target: Bromodomain-containing protein 4 (Homo sapiens, UniProt O60885)
Assay: In Vitro Enzyme Inhibition Assay
Method: His-tagged BRD4 was cloned, expressed and purified to homogeneity. BRD4 binding and inhibition was assessed by monitoring the interaction of biotinylated H4-tetraacetyl peptide (AnaSpec, H4K5/8/12/16(Ac), biotin-labeled) with the target using the AlphaScreen technology ([…]). […] After 20 min incubation at room temp, Alpha streptavidin donor beads and Nickel Chelate acceptor beads were added to a final concentration of 5 μg/mL.

SMILES: CCCCc1cnc(NS(O)(O)CC)nc1-c1ccc(=O)n(C)c1 [US10941160, Example 358]
- IC50: < 500 nM
